This experiment has as its target Peptidyl-prolyl cis-trans isomerase NIMA-interacting 1 (Homo sapiens, UniProt Q13526). Description: Binding affinity to Pin1 by isothermal calorimetry. A general note: Isothermal titration calorimetry measures the heat released or taken up as one component is titrated into another.

Chains of the proteins cited; added tags and fusions are not shown.
UniProt Q13526, whole entry: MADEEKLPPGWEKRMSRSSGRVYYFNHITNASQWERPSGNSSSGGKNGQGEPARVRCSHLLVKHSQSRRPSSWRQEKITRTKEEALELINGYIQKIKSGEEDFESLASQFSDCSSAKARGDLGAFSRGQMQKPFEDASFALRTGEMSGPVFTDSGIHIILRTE

In the case of `O=C(O)c1nc(-c2ccccc2)[nH]c1C(=O)O`, the Kd amounted to 1700 nM.

What is called Kd is the concentration at which binding is half-saturated. Lower therefore signals higher affinity.

The record behind these values is ChEMBL document CHEMBL1268960, “Discovery of cell-active phenyl-imidazole Pin1 inhibitors by structure-guided fragment evolution” (Bioorg Med Chem Lett, 2010).
